Experiments:
[1] = biological target: recombinant Stat3 binding to immobilized EGFR Y1068 phosphododecapeptide (Homo sapiens, UniProt P40763); test: Stat3 SH2/pY-peptide binding assay (SPR, BIAcore)
[2] = tested on: MEF/GFP-Stat3α cells; test: High-throughput fluorescence microscopy (HTFM) cytoplasmic-to-nuclear translocation of GFP-Stat3α; format: cell-based, murine; details: read-out: HTFM IC50; Table 5; mean ± SD
Description: Coverslips were examined by confocal fluorescent microscopy using filters to detect GFP (column one), DAPI (column two) or both (merge; column three). In panel B, MEF-GFP-Stat3 cells were grown in 96-well plates with optical glass bottoms and pretreated with the indicated compound at the indicated concentrations in quadruplicate for 1 hour then stimulated with IL-6 (200 ng/ml) and IL-6sR (250 ng/ml) for 30 minutes. Cells were fixed and the plates were examined by high-throughput microscopy to determine the fluorescence intensity in the nucleus (FLIN) and the % ΔFLINMax was calculated as described in Example 1. Data shown are mean±SD and are representative of 2 or more studies. […]
Confocal and high-throughput fluorescence microscopy. Confocal and highthroughput fluorescence microscopy (HTFM) of MEF/GFP-Stat3α cells were performed as described (Huang et al., 2007). Briefly, for confocal fluorescence microscopy, cells were grown in 6-well plates containing a cover slip. […] Plates were analyzed by automated HTFM using the Cell Lab IC Image Cytometer (IC100) platform and CytoshopVersion 2.1 analysis software (Beckman Coulter). Nuclear translocation is quantified by using the fraction localized in the nucleus (FLIN) measurement (Sharp et al., 2006). […]
EXP IIB. High throughput fluorescence microscopy (HTFM), cytoplasm-to-nucleus translocation inhibition assays. […]

By UniProt entry, the sequences of proteins in these tests, tags left out.
UniProt P40763, whole entry: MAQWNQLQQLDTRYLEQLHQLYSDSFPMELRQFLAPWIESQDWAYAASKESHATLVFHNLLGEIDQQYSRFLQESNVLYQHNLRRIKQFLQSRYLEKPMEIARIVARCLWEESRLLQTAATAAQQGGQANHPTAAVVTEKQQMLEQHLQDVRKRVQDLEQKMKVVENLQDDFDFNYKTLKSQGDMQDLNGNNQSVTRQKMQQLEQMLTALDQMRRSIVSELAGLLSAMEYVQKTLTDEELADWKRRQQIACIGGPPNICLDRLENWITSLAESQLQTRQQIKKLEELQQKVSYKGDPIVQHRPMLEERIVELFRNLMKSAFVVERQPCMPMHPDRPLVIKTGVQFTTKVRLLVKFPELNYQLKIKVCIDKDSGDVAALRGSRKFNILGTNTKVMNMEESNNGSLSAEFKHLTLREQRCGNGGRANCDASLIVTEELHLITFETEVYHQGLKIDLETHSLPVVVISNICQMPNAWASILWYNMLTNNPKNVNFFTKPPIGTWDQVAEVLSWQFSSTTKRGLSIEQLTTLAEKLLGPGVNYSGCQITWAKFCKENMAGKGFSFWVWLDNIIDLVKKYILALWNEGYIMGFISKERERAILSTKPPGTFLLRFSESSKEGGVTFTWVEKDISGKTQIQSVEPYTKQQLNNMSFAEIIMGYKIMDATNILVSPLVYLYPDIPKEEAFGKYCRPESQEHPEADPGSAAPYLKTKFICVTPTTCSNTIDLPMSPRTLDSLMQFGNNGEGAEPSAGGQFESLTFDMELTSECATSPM

[3] = tested on: SUM159PT and HS578T cells; test: Mammosphere formation (MSFE); format: cell-based
[4] = tested on: human leukemic cell line; test: Apoptosis of human leukemic (AML) cell line

## O=S(=O)(Nc1cc(Sc2nc[nH]n2)c(O)c2ccccc12)c1ccc(Br)cc1
[1]; 2nd generation probes
  SPR IC50 compared with parent Cpd188: one log lower
[1]; read-out: SPR IC50, Table 5, mean ± SD
  IC50: 2000 nM
[2]
  IC50: 49000 nM
[3]
  activity in decreasing MSFE compared with parent Cpd188: 1 log
[3]; read-out: Mammosphere ~ IC50, SUM159PT and HS578T cells, compound at 1, 10 or 100 μM, 3 d, spheres counted on day 3
  IC50: 3000 nM
[4]
  activity in inducing human leukemic cell line apoptosis compared with parent Cpd188: a log greater activity

From patent US20150031714A1, “METHODS AND COMPOSITIONS FOR PREVENTION OF ALLERGIC REACTION” (Baylor College of Medicine, priority 2013, published 2015)
